B1: Histone acetyltransferase RTT109 (Saccharomyces cerevisiae), Q07794 (parent)
chain: MSLNDFLSSVLPVSEQFEYLSLQSIPLETHAVVTPNKDDKRVPKSTIKTQHFFSLFHQGKVFFSLEVYVYVTLWDEADAERLIFVSKADTNGYCNTRVSVRDITKIILEFILSIDPNYYLQKVKPAIRSYKKISPELISAASTPARTLRILARRLKQSGSTVLKEIESPRFQQDLYLSFTCPREILTKICLFTRPASQYLFPDSSKNSKKHILNGEELMKWWGFILDRLLIECFQNDTQAKLRIPGEDPARVRSYLRGMKYPLWQVGDIFTSKENSLAVYNIPLFPDDPKARFIHQLAEEDRLLKVSLSSFWIELQERQEFKLSVTSSVMGISGYSLATPSLFPSSADVIVPKSRKQFRAIKKYITGEEYDTEEGAIEAFTNIRDFLLLRMATNLQSLTGKREHRERNQPVPASNINTLAITMLKPRKKAKALPKT
B2: Vacuolar protein sorting-associated protein 75 (Saccharomyces cerevisiae), P53853 (parent)
chain: MMSDQENENEHAKAFLGLAKCEEEVDAIEREVELYRLNKMKPVYEKRDAYIDEIAEFWKIVLSQHVSFANYIRASDFKYIDTIDKIKVEWLALESEMYDTRDFSITFHFHGIEGDFKEQQVTKVFQIKKGKDDQEDGILTSEPVPIEWPQSYDSINPDLIKDKRSPEGKKKYRQGMKTIFGWFRWTGLKPGKEFPHGDSLASLFSEEIYPFCVKYYAEAQRDLEDEEGESGLSADGDSEDDDGSLGEVDLPLSDEEPSSKKRKV

Variants of: B1
Conditions: with vps75_yeast VPS75, P53853

Row | effect of a mutation on the interaction | Variant
1 | decreasing interaction | MSLNDFLSSVLPVSEQFEYLSLQSIPLETHAVVTPNKDDKRVPKSTIKTQHFFSLFHQGKVFFSLEVYVYVTLWDEADAERLIFVSKADTNGYCNTRVSVRDITKIILEFILSIDPNYYLQKVKPAIRSYKKISPELISAASTPARTLRILARRLKQSGSTVLKEIESPRFQQDLYLSFTCPREILTKICLFTRPASQYLFPDSSKNSKKHILNGEELMKWWGFILDRLLIECFQNDTQAKLRIPGEDPARVRSYLRGMKYPLWQVGDIFTSKENSLAVYNIPLFPDDPKARFIHQLAEEDRLLKVSLSSFWIELQERQEFKLSVTSSVMGISGYSLATPSLFPSSADVIVPKSEEQFRAIKKYITGEEYDTEEGAIEAFTNIRDFLLLRMATNLQSLTGKREHRERNQPVPASNINTLAITMLKPRKKAKALPKT [R355E;K356E]
2 | disrupting interaction | MSLNDFLSSVLPVSEQFEYLSLQSIPLETHAVVTPNKDDKRVPKSTIKTQHFFSLFHQGKVFFSLEVYVYVTLWDEADAERLIFVSKADTNGYCNTRVSVRDITKIILEFILSIDPNYYLQKVKPAIRSYKKISPELISAASTPARTDRDDARRLKQSGSTVLKEIESPRFQQDLYLSFTCPREILTKICLFTRPASQYLFPDSSKNSKKHILNGEELMKWWGFILDRLLIECFQNDTQAKLRIPGEDPARVRSYLRGMKYPLWQVGDIFTSKENSLAVYNIPLFPDDPKARFIHQLAEEDRLLKVSLSSFWIELQERQEFKLSVTSSVMGISGYSLATPSLFPSSADVIVPKSRKQFRAIKKYITGEEYDTEEGAIEAFTNIRDFLLLRMATNLQSLTGKREHRERNQPVPASNINTLAITMLKPRKKAKALPKT [L148D;I150D;L151D]
3 | disrupting interaction | MSLNDFLSSVLPVSEQFEYLSLQSIPLETHAVVTPNKDDKRVPKSTIKTQHFFSLFHQGKVFFSLEVYVYVTLWDEADAERLIFVSKADTNGYCNTRVSVRDITKIILEFILSIDPNYYLQKVKPAIRSYKKISPELISAASTPARTLRDDARRLKQSGSTVLKEIESPRFQQDLYLSFTCPREILTKICLFTRPASQYLFPDSSKNSKKHILNGEELMKWWGFILDRLLIECFQNDTQAKLRIPGEDPARVRSYLRGMKYPLWQVGDIFTSKENSLAVYNIPLFPDDPKARFIHQLAEEDRLLKVSLSSFWIELQERQEFKLSVTSSVMGISGYSLATPSLFPSSADVIVPKSRKQFRAIKKYITGEEYDTEEGAIEAFTNIRDFLLLRMATNLQSLTGKREHRERNQPVPASNINTLAITMLKPRKKAKALPKT [I150D;L151D]

Variants of: B1
Conditions: with vps75_yeast VPS75, P53853
Remark: another data set of the same source

Row | effect of a mutation on the interaction | Variant
4 | disrupting interaction | MSLNDFLSSVLPVSEQFEYLSLQSIPLETHAVVTPNKDDKRVPKSTIKTQHFFSLFHQGKVFFSLEVYVYVTLWDEADAERLIFVSKADTNGYCNTRVSVRDITKIILEFILSIDPNYYLQKVKPAIRSYKKISPELISAASTPARTDRILARRLKQSGSTVLKEIESPRFQQDLYLSFTCPREILTKICLFTRPASQYLFPDSSKNSKKHILNGEELMKWWGFILDRLLIECFQNDTQAKLRIPGEDPARVRSYLRGMKYPLWQVGDIFTSKENSLAVYNIPLFPDDPKARFIHQLAEEDRLLKVSLSSFWIELQERQEFKLSVTSSVMGISGYSLATPSLFPSSADVIVPKSRKQFRAIKKYITGEEYDTEEGAIEAFTNIRDFLLLRMATNLQSLTGKREHRERNQPVPASNINTLAITMLKPRKKAKALPKT [L148D]
5 | decreasing interaction | MSLNDFLSSVLPVSEQFEYLSLQSIPLETHAVVTPNKDDKRVPKSTIKTQHFFSLFHQGKVFFSLEVYVYVTLWDEADAERLIFVSKADTNGYCNTRVSVRDITKIILEFILSIDPNYYLQKVKPAIRSYKKISPELISAASTPARTLRILARRLKQSGSTVLKEIESPRFQQDLYLSFTCPREILTKICLFTRPASQYLFPDSSKNSKKHILNGEELMKWWGFILDRLLIECFQNDTQAKLRIPGEDPARVRSYLRGMKYPLWQVGDIFTSKENSLAVYNIPLFPDDPKARFIHQLAEEDRLLKVSLSSFWIELQERQEFKLSVTSSVMGISGYSLATPSLFPSSADVIVPKSRKQFRAIKKYITGEEYDTEEGAIRAFTRIRDFLLLRMATNLQSLTGKREHRERNQPVPASNINTLAITMLKPRKKAKALPKT [E378R;N382R]

Variants of: B2
Conditions: with rt109_yeast RTT109, Q07794

Row | Variant | effect of a mutation on the interaction
6 | MMSDQENENEHAKAFLGLAKCEEEVDAIEREVELYRLNKMKPVYEKRDAYIDEIAEFWKIVLSQHVSFANYIDDSDFKYIDTIDKIKVEWLALESEMYDTRDFSITFHFHGIEGDFKEQQVTKVFQIKKGKDDQEDGILTSEPVPIEWPQSYDSINPDLIKDKRSPEGKKKYRQGMKTIFGWFRWTGLKPGKEFPHGDSLASLFSEEIYPFCVKYYAEAQRDLEDEEGESGLSADGDSEDDDGSLGEVDLPLSDEEPSSKKRKV [R73D;A74D] | disrupting interaction
7 | MMSDQENENEHAKAFLGLDKCEEEVDAIEREVELYRLNKMKPVYEKRDAYIDEIAEFWKIVLSQHVSFANYIRASDFKYIDTIDKIKVEWLALESEMYDTRDFSITFHFHGIEGDFKEQQVTKVFQIKKGKDDQEDGILTSEPVPIEWPQSYDSINPDLIKDKRSPEGKKKYRQGMKTIFGWFRWTGLKPGKEFPHGDSLASLFSEEIYPFCVKYYAEAQRDLEDEEGESGLSADGDSEDDDGSLGEVDLPLSDEEPSSKKRKV [A19D] | decreasing interaction
8 | MMSDQENENEHAKAFLGLAKEEEESDAEEREEELYRLNKMKPVYEKRDAYIDEIAEFWKIVLSQHVSFANYIRASDFKYIDTIDKIKVEWLALESEMYDTRDFSITFHFHGIEGDFKEQQVTKVFQIKKGKDDQEDGILTSEPVPIEWPQSYDSINPDLIKDKRSPEGKKKYRQGMKTIFGWFRWTGLKPGKEFPHGDSLASLFSEEIYPFCVKYYAEAQRDLEDEEGESGLSADGDSEDDDGSLGEVDLPLSDEEPSSKKRKV [C21E;V25S;I28E;V32E] | disrupting interaction

Now from value to variant:

Row | effect of a mutation on the interaction | Variant
9 | decreasing interaction | MMSDQENENEHAKAFLGLAKCEEEVDAIEREVELYRLNKMKPVYEKRDAYIDEIAEFWKIVLSQHVSFANYIRASDFKYIDTIDKIKVEWLALESEMYDTRDFSITFHFHGIEGDFKEQQVTKVFQIKKGKDDQEDGILTSEPVPIEWPQSYDSINPDLIKDKRSPEGKKKYEQGMETIFGWFRWTGLKPGKEFPHGDSLASLFSEEIYPFCVKYYAEAQRDLEDEEGESGLSADGDSEDDDGSLGEVDLPLSDEEPSSKKRKV [R173E;K177E]
10 | disrupting interaction | MMSDQENENEHAKAFLGLAKCEEEVDAIEREVELYRLNKMKPVYEKRDAYIDEIAEFWKIVLSQHVSFANYIRASDFKYIDTIDKIKVEWLALESEMYDTRDFSITFHFHGIEGDFKEQQVTKVFQIKKGKDDQEDGILTSEPVPIEWPQSYDSINPDLIKDKRSPEGKKKYRQGMKTIFGWFRWTGLKPGKEFPHGDSLASLFSEEIYPFCVKYYAKAQRKLEDEEGESGLSADGDSEDDDGSLGEVDLPLSDEEPSSKKRKV [E218K;D222K]

Variants of: B2
Conditions: with rt109_yeast RTT109, Q07794
Remark: another data set of the same source

Row | effect of a mutation on the interaction | Variant
11 | decreasing interaction | MMSDQENENEHAKAFLGLAKCEEEVDAIEREVELYRLNKMKPVYEKRDAYIDEIAEFWKIVLSQHVSFANYIRASDFKYIDTIDKIKVEWLALESEMYDTRDFSITFHFHGIEGDFKEQQVTKVFQIKKGKDDQEDGILTSEPVPIEWPQSYDSINPDLIKDKRSPEGKKKYRQGMKTIFGWFRWTGLKPGKEFPHGDSLASLFSEEIYPFCVKYYAKAQRKLEDEEGESGLSADGDSEDDDGSLGEVDLPLSDEEPSSKKRKV [E218K;D222K]
